Data on three compounds can be found in patent US11579152B2, “Engineered hERG channel proteins, vesicles and methods of identifying small molecule pharmacological agents” (priority 2016, dated 2023).

Amino acid sequences for entries named in this document (tags omitted). Chains listed by the source or under a name are the forms on record and can include a tag or linker.
UniProt Q12809, with tags, fused parts or gaps DEL141-380/DEL871-1005: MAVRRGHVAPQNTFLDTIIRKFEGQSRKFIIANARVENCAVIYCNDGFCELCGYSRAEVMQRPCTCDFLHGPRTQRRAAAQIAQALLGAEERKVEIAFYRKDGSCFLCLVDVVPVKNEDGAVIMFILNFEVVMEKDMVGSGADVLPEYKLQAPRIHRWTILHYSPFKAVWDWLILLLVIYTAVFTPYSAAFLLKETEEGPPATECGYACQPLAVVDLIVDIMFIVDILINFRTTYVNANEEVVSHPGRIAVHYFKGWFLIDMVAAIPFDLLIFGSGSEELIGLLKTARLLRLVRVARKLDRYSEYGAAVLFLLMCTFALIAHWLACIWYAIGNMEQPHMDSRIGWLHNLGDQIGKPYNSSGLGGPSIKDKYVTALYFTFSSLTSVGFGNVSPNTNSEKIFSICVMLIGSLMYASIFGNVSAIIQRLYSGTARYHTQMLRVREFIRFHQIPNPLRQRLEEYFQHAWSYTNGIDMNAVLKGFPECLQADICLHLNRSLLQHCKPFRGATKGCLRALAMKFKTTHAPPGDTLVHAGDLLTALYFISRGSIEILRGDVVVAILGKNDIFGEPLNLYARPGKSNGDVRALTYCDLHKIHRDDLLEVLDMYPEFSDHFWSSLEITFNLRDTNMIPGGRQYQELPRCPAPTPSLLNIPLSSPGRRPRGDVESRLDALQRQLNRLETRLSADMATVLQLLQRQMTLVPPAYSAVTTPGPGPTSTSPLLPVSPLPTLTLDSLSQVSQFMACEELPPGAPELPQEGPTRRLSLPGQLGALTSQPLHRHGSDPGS

Assay [1] deals with hERG (Homo sapiens, UniProt Q12809). As to conditions: read-out: IC50 patch; electrophysiology-determined values reported in the literature; cited from earlier work.
Assay [2] deals with hERG channel (Homo sapiens, UniProt Q12809, DEL141-380/DEL871-1005). The assay can be described thus: biochemical.

SMILES strings stand for the structures.

For `CN1CCCCC1CCN1c2ccccc2Sc2ccc([S+](C)[O-])cc21` (stereo not drawn) [Mesoridazine], the figures for the IC50 in assay [1] and in assay [2] were 426 nM and 6650 ± 1390 nM, respectively.
In the case of `OC(c1cc(C(F)(F)F)nc2c(C(F)(F)F)cccc12)C1CCCCN1` (stereo not drawn) [Mefloquine], the 50% inhibitory concentration (IC50) in assay [1] was 2600 to 5600 nM; in assay [2] it was 2970 ± 421 nM.
As to `CC(C)COCC(CN(Cc1ccccc1)c1ccccc1)N1CCCC1` (stereo not drawn) [Bepridil], the IC50 in assay [1] is 23 to 99 nM; in assay [2], 595 ± 66 nM.
